Assay [1] addresses T1, human BACE1 extracellular domain, amino acids 1-457 of SEQ ID NO:49 (human, UniProt P56817 22-457, biotinylated in the phage sorting, phage ELISAs and the competition ELISA (sites not given)).
T1 construct: also called human BACE1 ECD; hBACE1
The experiment in a line: phage competition ELISA IC50, against parent Fab5. As to the method: Single colonies (in XL1 blue cells) of the selected clones were picked up and grown in 1 ml 2YT broth supplemented with 50 μg/ml carbenicillin, 10 μg/ml tetracycline and M13KO7 at 37° C. for 2 h. Kanamycin (25 μg/ml) was added to the culture, which continued to grow for 6 h. The culture was transferred to 30 ml 2YT broth supplemented with 50 μg/ml carbenicillin and 25 μg/mlkanamycin and grown at 37° C. overnight. Phage were harvested and purified as previously described (Sidhu, S. S. et al. Methods Enzymol. 328: 333-363 (2000)). The purified Fab-displaying phage were serially diluted in PBT buffer and tested for binding to BACE1 immobilized on a plate. A fixed phage concentration that gives 80% of saturation signals was selected for the subsequent competition ELISA. […] The plate was then washed for 8 times and bound phage were detected by anti-M13-HRP.
(§1) To estimate the affinity of these 6 clones, phage competition ELISAs were performed, as described above, and IC₅₀ values were determined (FIG. 7). The IC₅₀ values were determined by fitting the data to a four-parameter logistic equation developed by Marquardt (Marquardt, D. W. SIAM J. Appl. Math. 11: 431-441 (1963)) using Kaleidagraph (Synergy Software) and are shown below in Table 2.
(In general: In an ELISA, binding on a coated surface is turned into a signal by an enzyme label.)

By UniProt entry, the sequences of proteins in these tests, tags left out. Where a name states a change or a piece, a line headed by the entry shows the natural chain unless it says otherwise. Residues count along the entry.
UniProt P56817, 22-457: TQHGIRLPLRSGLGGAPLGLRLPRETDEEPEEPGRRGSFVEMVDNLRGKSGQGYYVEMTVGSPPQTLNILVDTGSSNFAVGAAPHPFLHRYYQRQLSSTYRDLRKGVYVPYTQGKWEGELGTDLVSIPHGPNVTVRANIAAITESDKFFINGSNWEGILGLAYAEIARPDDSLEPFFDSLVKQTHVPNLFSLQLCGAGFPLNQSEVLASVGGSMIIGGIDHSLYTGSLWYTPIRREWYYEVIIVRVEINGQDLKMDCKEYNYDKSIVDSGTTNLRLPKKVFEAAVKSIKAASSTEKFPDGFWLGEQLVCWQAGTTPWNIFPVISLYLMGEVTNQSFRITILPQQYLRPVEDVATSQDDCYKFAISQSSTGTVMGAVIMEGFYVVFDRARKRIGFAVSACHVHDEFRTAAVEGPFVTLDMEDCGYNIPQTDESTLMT

Assay [2] concerns the target T1, human BACE1 extracellular domain, amino …. The experiment in a line: one-point phage competition ELISA: ratio of the ELISA signal of Fab-displaying phage on plate-immobilized BACE1 without / with 20 nM BACE1 in solution. As to the method:
(§2) Screening of the libraries for affinity maturation of initially obtained antibodies was carried out similarly as described above. […] For rounds 2 and 3, 20 nM and 5 nM biotinylated BACE1 was incubated with amplified phage, respectively. Clones (96) from each of the two libraries were screened in a one-point competition ELISA, where 20 nM of BACE1 was used in solution to compete the phage particle from binding to plate-immobilized BACE1 as described below.
(§3) A plate immobilized with BACE1 was prepared by capturing 2 μg/ml biotinylated BACE1 for 15 min using a 384-well Maxisorp Immunoplate that was previously coated with 2 μg/ml of Neutravidin at 4° C. for overnight and blocked with Blocking Buffer. The culture supernatants from individual clones grown in a 96-well format were diluted 20-fold in PBT buffer and was incubated with or without 20 nM BACE1 at room temperature for 1 h. The mixture was transferred to the plate with immobilized BACE1 and incubated for 15 min. The plate was washed six times by PT buffer and the bound phage was detected by anti-M13-HRP as described above. The ratio between the ELISA signal from the well in the absence and the presence of BACE1 in solution indicates the affinity of the clone, where higher ratios indicate the higher affinities.

Assay [3] shares this target. The experiment in a line: one-point competition phage ELISA, plate-immobilized BACE1, 20 nM BACE1 in solution. As to the method:
as §2, §3

For assay [4] the target is unchanged. The experiment in a line: phage competition ELISA: Fab-displaying phage on plate-immobilized BACE1, serial dilutions of BACE1 in solution. As to the method:
(§4) Single colonies (in XL1 blue cells) of the selected clones were picked up and grown in 1 ml 2YT broth supplemented with 50 μg/ml carbenicillin, 10 μg/ml tetracycline and M13KO7 at 37° C. for 2 h. Kanamycin (25 μg/ml) was added to the culture, which continued to grow for 6 h. The culture was transferred to 30 ml 2YT broth supplemented with 50 μg/ml carbenicillin and 25 μg/mlkanamycin and grown at 37° C. overnight. Phage were harvested and purified as previously described (Sidhu, S. S. et al. Methods Enzymol. 328: 333-363 (2000)). The purified Fab-displaying phage were serially diluted in PBT buffer and tested for binding to BACE1 immobilized on a plate. A fixed phage concentration that gives 80% of saturation signals was selected for the subsequent competition ELISA. The competition was conducted by incubating the fixed, sub-saturating Fab-displaying phage with serial dilutions of BACE1 for 1 h and then transferred to the BACE1-immobulized plate for 15 min to capture unbound phage. The plate was then washed for 8 times and bound phage were detected by anti-M13-HRP.
as §1

Assay [5] has the same target. The experiment in a line: phage competition ELISA IC50, against parent Fab12. As to the method: as §4, §1
The target is the same in assay [6]. The experiment in a line: cell-based or functional assay.

Some results are limits rather than exact numbers.

The term IC50 denotes the point on the concentration scale where inhibition reaches its midpoint.

B1: Fab LC 11 (Fab, V domains shown)
VH: EVQLVESGGGLVQPGGSLRLSCAASGFNLSYSYIHWVRQAPGKGLEWVASIYSSYGSTYYADSVKGRFTISADTSKNTAYLQMNSLRAEDTAVYYCARSYHHSDKYYYAWSYALDYWGQGTLVTVSS
VL: DIQMTQSPSSLSASVGDRVTITCRASQSVSSAVAWYQQKPGKAPKLLIYSASSLYSGVPSRFSGSGSGTDFTLTISSLQPEDFATYYCQQYYPLTFGQGTKVEIK
Turning to B1, the Fold affinity improvement in assay [1] came out at 24 fold. In addition, in assay [2], the “Competition ELISA Ratio” value came to 4.4. In assay [3], the “ratio of ELISA signal in the absence to the presence of BACE1 in solution” value (shortened to “ratio of ELISA signal in the absence”) was above 4 ratio. For the same molecule, the IC50 in assay [4] came out at 880 pM.

B2: Fab LC 6 (Fab, V domains shown)
VH: EVQLVESGGGLVQPGGSLRLSCAASGFNFYYSSIHWVRQAPGKGLEWVASISPYSGYTSYADSVKGRFTISADTSKNTAYLQMNSLRAEDTAVYYCARQPTHYYYYAKGYKAMDYWGQGTLVTVSS
VL: DIQMTQSPSSLSASVGDRVTITCRASQSVSSAVAWYQQKPGKAPKLLISWASWLYSGVPSRFSGSGSGTDFTLTISSLQPEDFATYYCQQYSYSPFTFGQGTKVEIK
On to B2, for which, in assay [5], the Fold affinity improvement is 156 fold. Moreover, the “Competition ELISA Ratio” value in assay [2] came to 4. Further, in assay [3], the “ratio of ELISA signal in the absence” value was above 4 ratio. Further, the IC50 in assay [4] turned out to be 120 pM.

B3: Fab LC 9 (Fab, V domains shown)
VH: EVQLVESGGGLVQPGGSLRLSCAASGFNFYYSSIHWVRQAPGKGLEWVASISPYSGYTSYADSVKGRFTISADTSKNTAYLQMNSLRAEDTAVYYCARQPTHYYYYAKGYKAMDYWGQGTLVTVSS
VL: DIQMTQSPSSLSASVGDRVTITCRASQSVSSAVAWYQQKPGKAPKLLIWYASWLYSGVPSRFSGSGSGTDFTLTISSLQPEDFATYYCQQYSYSPFTFGQGTKVEIK
Turning to B3, the Fold affinity improvement in assay [5] turned out to be 378 fold. Besides, the “Competition ELISA Ratio” value in assay [2] is 11.7. In assay [3], the “ratio of ELISA signal in the absence” value is above 4 ratio. For the same molecule, the half-inhibitory concentration (IC50) in assay [4] was 120 pM.

B4: Fab LC10 (Fab, V domains shown)
VH: EVQLVESGGGLVQPGGSLRLSCAASGFNFYYSSIHWVRQAPGKGLEWVASISPYSGYTSYADSVKGRFTISADTSKNTAYLQMNSLRAEDTAVYYCARQPTHYYYYAKGYKAMDYWGQGTLVTVSS
VL: DIQMTQSPSSLSASVGDRVTITCRASQSVSSAVAWYQQKPGKAPKLLIWWASSLYSGVPSRFSGSGSGTDFTLTISSLQPEDFATYYCQQYSYSPFTFGQGTKVEIK
For the molecule B4, the “IC50 (nM), HTRF enzyme activity assay” value in assay [6] came to 180 nM. Moreover, the Fold affinity improvement in assay [5] came out at 378 fold. In assay [2], the “Competition ELISA Ratio” value is 7.8. Moreover, the “ratio of ELISA signal in the absence” value in assay [3] is above 4 ratio. Also, in assay [4], the IC50 turned out to be 120 pM.
